Many of the other results were omitted from the sample, so hits are more common in it than they were.
HCMV NEC inh: inhibitors of HCMV UL50-UL53 nuclear egress complex interaction; inhibition, % (concentration not given with the values); AID 1918969; 190,000 tested, 0.15% active; HTRF UL50-UL53 interaction, normalized percent inhibition; in the data active = inhibition above about 27%, passing the limit was not always enough
GIV-Gai inh: inhibitors of GIV GBA-motif binding to rat Galpha-i3; P08753; Galpha-i3/FITC-GIV peptide fluorescence polarization, 90 min; hits give low values; scaled: aluminum fluoride 0%, vehicle 100%; percent of control (FP), % (test concentration not listed); AID 1224905; hit rate 0.42% among 210,000;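 active = replicate mean at 85% of control or lower, very high polarization wells dropped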;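 note: wells of about 15 µL received 100 nL stock; the first replicate is given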
GIV Gai FP conf: confirmation of inhibitors of GIV binding to rat Galpha-i3; 580 tested, 38% active; fluorescence polarization, mP at 100 µM; FITC-GIV peptide binding to Galphai3, fluorescence polarization; stronger effect = lower value; shares compounds with GIV-Gai inh;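 active = inhibition score of 15 or more, meaning 100 minus mean polarization as percent of control over three replicates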
GIV Gai AS conf: confirmation of inhibitors of GIV binding to human Galpha-i3. AlphaScreen Galphai3-GIV binding, purified proteins, 90 min; stronger effect = lower value. shares compounds with GIV-Gai inh. 580 tested, 39% active. AlphaScreen counts at 100 µM;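 active = inhibition score at or above a set limit, where the score is 100 minus the three-replicate mean percent of control signal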
Of the large screens only hits and unclear results are named; the others gave an inactive call (follow-up assays come after a bar, where they were run).

CC1(C)CC(=O)c2c(n(S(=O)(=O)c3ccc(C(C)(C)C)cc3)c3ccc(NS(=O)(=O)c4ccc(C(C)(C)C)cc4)cc23)C1	none (no result: HCMV NEC inh)
C=CCOc1cccc(C(=O)N2CCN(C)CC2)c1	none
CC1CN(CC(=O)Nc2ccc3c(c2)CCC3)CC(C)O1 (stereo not given)	none (no result: GIV-Gai inh)
CCOc1ccc2c(c1)C(=O)c1cc(OCC(=O)OC)ccc1-2	none (no result: HCMV NEC inh)
CCCOc1ccc2c(c1)C(=O)c1cc(OCC(=O)O)ccc1-2	GIV-Gai inh 80 | GIV Gai FP conf inactive | GIV Gai AS conf inactive
Cn1c(=O)c2c(nc3n(C4CC4)c(-c4ccccc4)cn23)n(C)c1=O	none
Cc1nc(N2CCN(C)CC2)c2c(C)c(C(=O)Nc3cccc(Cl)c3)sc2n1	none (no result: HCMV NEC inh) | GIV Gai FP conf inactive | GIV Gai AS conf inactive
COc1ccc(Cl)cc1NC(=O)c1sc2nc(C)nc(N3CCN(C)CC3)c2c1C	none (no result: HCMV NEC inh)
N#CC1=C(SCC(N)=O)NC2=C(C(=O)CCC2)C1c1ccc2c(c1)OCO2 (stereo not given)	none
CCN(CC)S(=O)(=O)c1ccc(NC(=O)COC(=O)c2cncc(Br)c2)cc1	none (no result: GIV-Gai inh)
O=C(CSc1nnc(-c2ccccn2)c(-c2ccccn2)n1)c1ccc(N2CCCC2=O)cc1	none
O=C(CSc1nnc2c(n1)CCCC2)c1ccc(N2CCCC2=O)cc1	GIV-Gai inh 66 | GIV Gai FP conf 53 | GIV Gai AS conf 2430
Cc1ccc(Nc2nc(Nc3ccc(C)cc3)nc(Sc3ncn[nH]3)n2)cc1	none (no result: GIV-Gai inh)
Cc1ccc(S(=O)(=O)/N=C2/C=C(Sc3ncn[nH]3)C(=O)c3ccccc32)cc1	GIV-Gai inh 5.9 | GIV Gai FP conf 16 | GIV Gai AS conf 6564
Cc1ccc(S(=O)(=O)/N=C2\C=C(Sc3ncn[nH]3)C(=O)c3ccccc32)cc1	GIV-Gai inh 83 | GIV Gai FP conf 54 | GIV Gai AS conf 4566
Cc1ccc(S(=O)(=O)Nc2ccc(O)c(Sc3ncn[nH]3)c2)cc1	none
CC(C)c1ccc(S(=O)(=O)/N=C2/C=C(Sc3ncn[nH]3)C(=O)c3ccccc32)cc1	GIV-Gai inh 13 (no result: HCMV NEC inh) | GIV Gai FP conf 26 | GIV Gai AS conf 3681
O=C1C(Sc2ccccc2)=C/C(=N/S(=O)(=O)c2cccs2)c2ccccc21	none (no result: HCMV NEC inh)
O=C(/C=C\Nc1cccc(N/C=C\C(=O)c2ccccc2)c1)c1ccccc1	none (no result: GIV-Gai inh)
CCc1ccc(NC(=O)Nc2cc3c(cc2Oc2ccccc2)n(C)c(=O)n3C)cc1	none
NC(=O)CN1C(=O)Cc2ccccc2C1=O	GIV-Gai inh 63 | GIV Gai FP conf 58 | GIV Gai AS conf 12845
O=C(O)CCN1C(=O)Cc2ccccc2C1=O	none (no result: GIV-Gai inh)
O=C(OCc1ccccc1)/C(=C/c1cccs1)c1cccs1	none (no result: GIV-Gai inh)
CC(C)CCNC(=O)c1cc(-c2ccc(Br)s2)nc2ccccc12	none | GIV Gai FP conf inactive | GIV Gai AS conf inactive
CCCCN(C)CCCNC(=O)c1cc(-c2ccc(Br)s2)nc2ccccc12	none
Cc1cc(N(C)C)nc(Nc2ccc(NC(=O)C(C)C)cc2)n1	none (no result: HCMV NEC inh)
Cc1[nH]c(C=C2C(=O)Nc3ccc(S(=O)(=O)Cc4c(Cl)cccc4Cl)cc32)c(C)c1C(=O)N1CCCC1CN1CCCC1 (stereo not given)	none (no result: GIV-Gai inh)
O=C(N=Nc1c(O)[nH]c(=O)[nH]c1=O)c1ccccn1	none
O=C(N=Nc1c2ccccc2c2nc3no[nH]c3nc12)c1ccccc1O	GIV-Gai inh 77 | GIV Gai FP conf inactive | GIV Gai AS conf 12405
Cc1cccc2c3nc4ccccc4nc3n(CC#N)c12	none
COc1ccc(N(/N=C2\Sc3ccccc3C2=O)C(C)=O)cc1	none
CC(=O)O/N=C1\Sc2ccccc2C1=O	GIV-Gai inh 68 | GIV Gai FP conf inactive | GIV Gai AS conf 29965
CCCC1(CC)NC(=S)N(c2ccccc2)N1 (stereo not given)	none (no result: HCMV NEC inh)
CC(C)c1cc(-c2nnc3sc(-c4ccncc4)nn23)n[nH]1	GIV-Gai inh 85 | GIV Gai FP conf inactive | GIV Gai AS conf 12549
COc1ccccc1-c1nn2c(-c3cc(C(C)C)[nH]n3)nnc2s1	none
CCCCOc1ccc(C(=O)Nc2ccc3c(c2)N(S(=O)(=O)c2ccccc2)CCC3)cc1	none
CCCN1CC=C2C(C#N)=C(N)C(C#N)(C#N)C(c3ccc(OC)cc3)C2C1 (stereo not given)	none (no result: HCMV NEC inh)
CCCN1CC=C2C(C#N)=C(N)C(C#N)(C#N)C(c3ccc(OCC(N)=O)cc3)C2C1 (stereo not given)	GIV-Gai inh 85 | GIV Gai FP conf inactive | GIV Gai AS conf inactive
CC(C(=O)NCC1CCCO1)C1Sc2ccccc2N(Cc2ccccc2F)C1=O (stereo not given)	none
O=C(O)c1cnc(N2CCOCC2)c(NS(=O)(=O)c2ccccc2)c1	GIV-Gai inh 49 | GIV Gai FP conf 36 | GIV Gai AS conf inactive
O=C(O)c1cnc(N2CCC(Cc3ccccc3)CC2)c(NS(=O)(=O)c2ccccc2)c1	none
COc1ccc(-c2nnc(SCC(=O)Nc3ccc(C)cc3)nc2-c2ccc(OC)cc2)cc1	none (no result: HCMV NEC inh) | GIV Gai FP conf inactive | GIV Gai AS conf inactive
COc1ccc(-c2nnc(SCC(=O)Nc3cccc(C)c3C)nc2-c2ccc(OC)cc2)cc1	none (no result: HCMV NEC inh)
O=C(OCCOc1ccc(Br)cc1)c1ccc2c(=O)n3c(nc2c1)CCC3	none (no result: GIV-Gai inh)
O=c1[nH]c2ccccc2nc1NCc1ccccc1	none
Nc1nc(NCc2ccccc2)c(I)c(=O)[nH]1	HCMV NEC inh 66, GIV-Gai inh 50 | GIV Gai FP conf 46 | GIV Gai AS conf 2457
Cc1ccc(S(=O)(=O)n2nc(C)c(Sc3ncccn3)c2C)cc1	none
CCN(c1ccccc1)C1(O)C(=O)c2ccccc2C1=O	none (no result: HCMV NEC inh)
O=C(CC1(O)C(=O)c2ccccc2C1=O)c1ccccc1	none (no result: GIV-Gai inh)
O=C1c2ccccc2C(=O)C2(O)OCCOC12O (stereo not given)	HCMV NEC inh 106, GIV-Gai inh 51 | GIV Gai FP conf 62 | GIV Gai AS conf inactive
CCOC1(O)C(=O)c2ccccc2C(=O)C1(O)OCC (stereo not given)	HCMV NEC inh 97, GIV-Gai inh 72 | GIV Gai FP conf inactive | GIV Gai AS conf inactive
COC(=O)c1ccccc1NC(=O)CSc1nc2ccsc2c(=O)n1Cc1ccc(C)cc1	none (no result: HCMV NEC inh)
O=C(OC1c2ccccc2C(=O)N1Cc1ccccc1)c1cccc(Cl)c1 (stereo not given)	none (no result: HCMV NEC inh)
COCc1oc2ccc(NS(=O)(=O)c3ccc(C)cc3)cc2c1C(=O)OC	none
CCN(CC)c1ccc2c(c1)OC(N)=C(C#N)C2c1cccc(F)c1 (stereo not given)	none | GIV Gai FP conf inactive | GIV Gai AS conf inactive
N#CC1=C(N)Oc2cc(O)ccc2C1c1ccccc1 (stereo not given)	none
Cc1ccc(CCNS(=O)(=O)c2c(C)nc3sc(C)c(C)n3c2=O)cc1	none (no result: HCMV NEC inh)
COc1ccc(C2=NN(S(=O)(=O)c3ccc(C)cc3)C(c3ccccc3)C2)cc1OC (stereo not given)	none
Cc1cc(/C=C2\SC(=Nc3ccccc3)NC2=O)c(C)n1-c1ccccc1	none | GIV Gai FP conf inactive | GIV Gai AS conf inactive
CCc1ccc(N=C2NC(=O)/C(=C/c3cc(C)n(CC)c3C)S2)cc1	none
CCC1C/C(=C\c2ccc(OCC(N)=O)cc2)C(=O)/C(=C/c2ccc(OCC(N)=O)cc2)C1 (stereo not given)	none (no result: HCMV NEC inh) | GIV Gai FP conf inactive | GIV Gai AS conf 15830
CCC1C/C(=C\c2ccc(Br)cc2)C(=O)/C(=C/c2ccc(Br)cc2)C1 (stereo not given)	none (no result: HCMV NEC inh)

Assay outcomes deposited in PubChem BioAssay by ICCB-Longwood Screening Facility, Harvard Medical School.
